The source made the active and inactive calls. The calls are words filed in the database; no cut-off is given here.
Biological target: T1, Free fatty acid receptor 4 (Homo sapiens) (UniProt Q5NUL3)
T1 sequence (whole entry): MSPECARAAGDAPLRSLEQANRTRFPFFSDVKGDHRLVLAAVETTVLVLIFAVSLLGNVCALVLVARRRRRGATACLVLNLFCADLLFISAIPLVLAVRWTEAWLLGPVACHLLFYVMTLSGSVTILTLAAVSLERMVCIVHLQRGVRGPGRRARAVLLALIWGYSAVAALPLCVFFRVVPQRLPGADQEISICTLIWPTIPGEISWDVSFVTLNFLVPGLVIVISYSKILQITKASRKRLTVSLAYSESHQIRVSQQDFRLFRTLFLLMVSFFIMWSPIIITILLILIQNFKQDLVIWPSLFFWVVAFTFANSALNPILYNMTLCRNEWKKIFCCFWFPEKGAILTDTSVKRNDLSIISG
Assay: Agonist activity at human GPR120 expressed in HEK293 cells by Fluo4-AM dye based intracellular calcium flux assay
Type: functional, cell-based

Activity | SMILES
inactive | Cc1cccc(C)c1-c1cccc(COc2ccc([S@@+]([O-])CC(=O)O)cc2)c1
inactive | Cc1cc(OCCCS(C)(=O)=O)cc(C)c1-c1cccc(COc2ccc([S@@+]([O-])CC(=O)O)cc2)c1

Source: ChEMBL document CHEMBL5346928, “Discovery of orally effective and safe GPR40 agonists by incorporating a chiral, rigid and polar sulfoxide into β-position to the carboxylic acid” (Eur J Med Chem, 2023)
